Results as given in ChEMBL document CHEMBL1154779, “Synthesis and adrenolytic activity of 1-(1H-indol-4-yloxy)-3-(2-(2-methoxy phenoxy)ethylamino)propan-2-ol analogs and its enantiomers. Part 2” (Eur J Med Chem, 2009).

Assays:
[1] = tested on: Rattus norvegicus; assay: Effect on heart rate in anesthetized Wistar rat assessed as QRS complex time at 1 mg/kg, iv after 1 min by electrocardiography; type: functional
[2] = tested on: Rattus norvegicus; assay: Effect on heart rate in anesthetized Wistar rat assessed as QRS complex time at 1 mg/kg, iv after 15 mins by electrocardiography; type: functional

SMILES: COc1ccccc1OCCNCC(O)COc1cccc2[nH]c3ccccc3c12 (configuration not stated) [CARVEDILOL]
- Activity [1]: 22 ms
- Activity [2]: 23.2 ms
